Test results reported in ChEMBL document CHEMBL4342476, “Identification of RIPK3 Type II Inhibitors Using High-Throughput Mechanistic Studies in Hit Triage” (ACS Med Chem Lett, 2020).

The chains behind the UniProt entries cited, without tags or fusion partners. Where a name states a change or a piece, a line headed by the entry shows the natural chain unless it says otherwise.
UniProt P08581: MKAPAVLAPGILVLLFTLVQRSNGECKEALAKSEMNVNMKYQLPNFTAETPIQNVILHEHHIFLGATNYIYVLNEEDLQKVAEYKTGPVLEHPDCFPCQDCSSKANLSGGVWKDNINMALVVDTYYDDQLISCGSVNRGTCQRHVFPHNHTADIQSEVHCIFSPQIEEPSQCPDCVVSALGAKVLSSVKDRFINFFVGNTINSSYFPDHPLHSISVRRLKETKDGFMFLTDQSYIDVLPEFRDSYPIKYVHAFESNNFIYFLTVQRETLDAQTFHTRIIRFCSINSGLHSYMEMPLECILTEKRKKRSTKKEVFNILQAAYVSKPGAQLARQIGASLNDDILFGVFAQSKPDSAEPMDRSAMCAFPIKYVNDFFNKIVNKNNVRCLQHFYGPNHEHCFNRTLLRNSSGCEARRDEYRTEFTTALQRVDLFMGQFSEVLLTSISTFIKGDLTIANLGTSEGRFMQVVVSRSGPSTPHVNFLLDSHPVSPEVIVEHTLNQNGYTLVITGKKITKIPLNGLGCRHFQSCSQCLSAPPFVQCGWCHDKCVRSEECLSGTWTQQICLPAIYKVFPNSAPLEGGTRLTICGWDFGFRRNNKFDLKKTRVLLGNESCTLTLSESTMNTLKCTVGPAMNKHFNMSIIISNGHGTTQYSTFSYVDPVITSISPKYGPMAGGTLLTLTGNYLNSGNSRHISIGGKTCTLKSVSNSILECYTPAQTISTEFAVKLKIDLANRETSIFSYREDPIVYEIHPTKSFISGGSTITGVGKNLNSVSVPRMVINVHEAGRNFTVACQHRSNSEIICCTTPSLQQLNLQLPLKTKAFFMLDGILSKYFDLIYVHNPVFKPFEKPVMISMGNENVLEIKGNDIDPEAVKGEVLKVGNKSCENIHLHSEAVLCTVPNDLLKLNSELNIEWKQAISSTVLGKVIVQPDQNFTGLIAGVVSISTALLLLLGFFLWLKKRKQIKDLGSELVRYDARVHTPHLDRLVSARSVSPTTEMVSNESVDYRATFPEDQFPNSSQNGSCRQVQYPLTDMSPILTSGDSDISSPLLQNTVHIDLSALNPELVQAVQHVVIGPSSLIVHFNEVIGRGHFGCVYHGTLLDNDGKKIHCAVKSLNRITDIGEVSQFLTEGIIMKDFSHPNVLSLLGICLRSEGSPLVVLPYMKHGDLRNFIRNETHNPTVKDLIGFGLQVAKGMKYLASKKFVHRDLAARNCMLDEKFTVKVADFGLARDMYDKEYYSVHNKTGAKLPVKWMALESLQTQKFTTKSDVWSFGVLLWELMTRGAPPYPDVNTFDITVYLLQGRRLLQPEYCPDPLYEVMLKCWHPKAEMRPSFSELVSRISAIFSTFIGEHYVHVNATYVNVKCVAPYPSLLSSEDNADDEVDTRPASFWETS

Assays:
[1] = target: Hepatocyte growth factor receptor (Homo sapiens, UniProt P08581); assay: Displacement of fluorescein labeled ATP probe from His/GST-tagged c-Met (unknown origin) incubated for 60 mins by HTRF assay
Homo sapiens = organism: Homo sapiens; assay: Selectivity index, ratio of IC50 for displacement of fluorescein labeled ATP probe from His/GST-tagged RIPK1 (unknown origin) incubated for 60 mins by HTRF assay to IC50 for displacement of fluorescein labeled ATP probe from full length His/GST-tagged RIPK3 (unknown origin) incubated for 60 mins by HTRF assay

- IC50 [1]: 5.7 nM
- Ratio IC50 (Homo sapiens): 64
SMILES: O=C(Nc1ccc(Oc2ccnc3[nH]ccc23)c(F)c1)c1cccn(-c2ccc(F)cc2)c1=O
